# Test results taken from PubChem BioAssay AID2461 (Johns Hopkins Ion Channel Center, 2010).
# This is a selection; strong and weak results do not stand in their true shares. Some tests of the compounds listed are not included; inactive here does not mean inactive elsewhere. The source made the active and inactive calls.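 The calls were made as follows: active = primary screen active and over 50% activation in each of two duplicate runs; inactive = the rest.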
# System: transient receptor potential cation channel C4 beta (TRPC4), mouse
# Assay: TRPC4 cation channel opening, second retest – cell-based, second round, Fluo4, HEK293 TRPC4beta/mu-opioid, 1 µM, confirmation (AID 2461)
# Conditions: Fluo4 calcium fluorescence, at 1 µM
row,Compound,outcome
1,CN(C)c1ccc(C(=O)NCC2(N(C)C)CCCCC2)cc1,inactive
